How the values were obtained:
[1] = target: bZiPro: unlinked ZIKV NS2B-NS3 protease of two separate polypeptides, NS2B 45-96 and NS3 1-177 (Zika virus)
[2] = target: eZiPro: ZIKV NS2B-NS3 protease, self-cleaved at the NS2B/NS3 junction (NS2B 45-96 joined to K126-R130, and NS3 1-177) (Zika virus)
[3] = target: gZiPro: single-chain ZIKV NS2B-NS3 protease with a G4SG4 linker between NS2B 45-96 and NS3 1-177 (Zika virus)

BPTI (from UniProt P00974 36-93) (natural protein)
IC50 of BPTI for inhibition of protease activity (cleavage of Bz-nKRR-AMC, 5 nM enzyme, 150 μM substrate, 37 °C) [1]: 12 nM
IC50 of BPTI for inhibition of protease activity (cleavage of Bz-nKRR-AMC, 5 nM enzyme, 150 μM substrate, 37 °C) [2]: 350 nM
IC50 of BPTI for inhibition of protease activity (cleavage of Bz-nKRR-AMC, 5 nM enzyme, 150 μM substrate, 37 °C) [3]: 76 nM

Source: PMC5116066
